ChEMBL document CHEMBL1123981, “Arylpiperazine derivatives as high-affinity 5-HT1A serotonin ligands” (J Med Chem, 1988)

Protein sequences, listed by entry. Tags and fused reporters are not part of them.
UniProt P19327, whole entry: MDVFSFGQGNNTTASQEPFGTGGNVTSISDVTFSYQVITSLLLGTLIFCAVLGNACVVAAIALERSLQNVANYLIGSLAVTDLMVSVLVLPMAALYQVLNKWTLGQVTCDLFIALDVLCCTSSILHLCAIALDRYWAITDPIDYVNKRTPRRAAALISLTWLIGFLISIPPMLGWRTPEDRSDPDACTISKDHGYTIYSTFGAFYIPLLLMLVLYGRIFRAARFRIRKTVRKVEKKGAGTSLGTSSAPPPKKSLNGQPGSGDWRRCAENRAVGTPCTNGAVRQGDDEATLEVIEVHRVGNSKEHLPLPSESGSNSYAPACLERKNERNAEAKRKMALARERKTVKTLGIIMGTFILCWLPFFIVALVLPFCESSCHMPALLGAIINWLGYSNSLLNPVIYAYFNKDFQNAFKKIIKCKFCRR

Molecular target: 5-hydroxytryptamine receptor 1A (Rattus norvegicus, UniProt P19327)
Assay: Evaluated for binding affinity towards 5-hydroxytryptamine 1A receptor in rat brain
Type: tissue-based
In short: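 Rat hippocampal membranes (male Sprague-Dawley, ca. 220 g), homogenized in 50 mM Tris-HCl/0.5 mM Na2EDTA/10 mM MgSO4, preincubated 15 min at 37 °C, washed twice. Assay: 0.1 nM [3H]8-OH-DPAT, 4 mg wet tissue, 50 mM Tris-HCl pH 7.7 with 10 μM pargyline, 0.1% ascorbate; eleven competitor concentrations; 20 min at 37 °C; glass-fibre filtration, scintillation counting; nonspecific with 1 μM 8-OH-DPAT; Ki by Cheng-Prusoff.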

`CC1(C)CC(=O)N(CCCCN2CCN(c3ncccn3)CC2)C(=O)C1` [GEPIRONE] was tested, and the Ki was 70 nM.
